The target in the test is Adenylate cyclase type 10 (Homo sapiens, UniProt Q96PN6). Conditions: dose 500.0 µM, time 15.0 min.

The chains behind the UniProt entries cited, without tags or fusion partners. Where a name states a change or a piece, a line headed by the entry shows the natural chain unless it says otherwise.
UniProt Q96PN6: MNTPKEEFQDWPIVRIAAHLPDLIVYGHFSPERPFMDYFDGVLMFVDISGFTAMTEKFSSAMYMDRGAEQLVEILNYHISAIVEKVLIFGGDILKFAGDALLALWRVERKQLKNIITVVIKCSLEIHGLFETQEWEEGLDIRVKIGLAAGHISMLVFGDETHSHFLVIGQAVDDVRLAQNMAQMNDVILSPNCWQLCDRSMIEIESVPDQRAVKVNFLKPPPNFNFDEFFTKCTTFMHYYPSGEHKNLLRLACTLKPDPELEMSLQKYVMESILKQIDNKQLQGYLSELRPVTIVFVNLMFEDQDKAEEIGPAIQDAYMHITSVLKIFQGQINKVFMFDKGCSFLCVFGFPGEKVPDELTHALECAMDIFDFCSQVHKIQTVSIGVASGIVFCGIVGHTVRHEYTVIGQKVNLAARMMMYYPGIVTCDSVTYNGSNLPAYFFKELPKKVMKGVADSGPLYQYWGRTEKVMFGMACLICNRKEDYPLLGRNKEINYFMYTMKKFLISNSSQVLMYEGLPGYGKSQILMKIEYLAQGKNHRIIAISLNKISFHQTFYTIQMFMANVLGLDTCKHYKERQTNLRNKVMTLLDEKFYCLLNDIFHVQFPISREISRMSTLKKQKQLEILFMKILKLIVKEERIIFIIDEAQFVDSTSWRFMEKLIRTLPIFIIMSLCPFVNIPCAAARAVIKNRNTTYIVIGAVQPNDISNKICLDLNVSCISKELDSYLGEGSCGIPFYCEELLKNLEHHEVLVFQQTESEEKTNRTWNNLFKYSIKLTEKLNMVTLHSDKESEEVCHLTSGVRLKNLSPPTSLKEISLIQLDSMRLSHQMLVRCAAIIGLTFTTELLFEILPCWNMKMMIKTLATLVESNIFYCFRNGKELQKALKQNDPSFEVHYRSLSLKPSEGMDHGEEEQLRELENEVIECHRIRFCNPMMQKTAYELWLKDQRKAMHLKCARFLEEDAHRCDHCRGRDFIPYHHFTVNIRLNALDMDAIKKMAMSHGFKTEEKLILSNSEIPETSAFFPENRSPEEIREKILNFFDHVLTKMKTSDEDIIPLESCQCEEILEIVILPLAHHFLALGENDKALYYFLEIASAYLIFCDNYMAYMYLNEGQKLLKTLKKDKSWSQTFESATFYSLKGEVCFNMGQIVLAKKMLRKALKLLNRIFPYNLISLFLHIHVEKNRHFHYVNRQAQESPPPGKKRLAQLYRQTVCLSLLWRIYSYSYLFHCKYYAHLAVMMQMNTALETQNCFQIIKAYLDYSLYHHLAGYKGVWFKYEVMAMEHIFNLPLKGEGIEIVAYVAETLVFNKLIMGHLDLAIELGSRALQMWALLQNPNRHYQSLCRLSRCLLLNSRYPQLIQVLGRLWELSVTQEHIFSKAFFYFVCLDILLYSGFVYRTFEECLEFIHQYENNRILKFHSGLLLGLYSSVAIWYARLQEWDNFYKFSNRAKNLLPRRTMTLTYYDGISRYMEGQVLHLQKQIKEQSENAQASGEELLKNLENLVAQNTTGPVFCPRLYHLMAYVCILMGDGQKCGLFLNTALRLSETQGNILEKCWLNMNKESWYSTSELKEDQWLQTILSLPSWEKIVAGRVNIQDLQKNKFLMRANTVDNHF

We go through 2 compounds from ChEMBL document CHEMBL5214996, “Design, Synthesis, and Pharmacological Evaluation of Second-Generation Soluble Adenylyl Cyclase (sAC, ADCY10) Inhibitors with Slow Dissociation Rates” (J Med Chem, 2022).

SMILES strings stand for the structures.

What is called inhibition is how much of the control response was suppressed. A higher inhibition goes with a response far below the control. `Nc1nc(Cl)cc(-c2n[nH]cc2Cc2ccccc2)n1` gave an inhibition of 70%.

For `CN(C)C(=O)c1ccccc1Cc1cn(C)nc1-c1cc(Cl)nc(N)n1`, the inhibition is 75%.
